This note sets out measurements from patent US10087225B2, “Formulation of MK2 inhibitor peptides” (MOERAE MATRIX, INC., priority 2015, dated 2018).

Chains of the proteins cited; added tags and fusions are not shown. Lines headed by an entry give the natural chain unless they say otherwise; changes in a name come on top.
UniProt Q06187, whole entry R28H: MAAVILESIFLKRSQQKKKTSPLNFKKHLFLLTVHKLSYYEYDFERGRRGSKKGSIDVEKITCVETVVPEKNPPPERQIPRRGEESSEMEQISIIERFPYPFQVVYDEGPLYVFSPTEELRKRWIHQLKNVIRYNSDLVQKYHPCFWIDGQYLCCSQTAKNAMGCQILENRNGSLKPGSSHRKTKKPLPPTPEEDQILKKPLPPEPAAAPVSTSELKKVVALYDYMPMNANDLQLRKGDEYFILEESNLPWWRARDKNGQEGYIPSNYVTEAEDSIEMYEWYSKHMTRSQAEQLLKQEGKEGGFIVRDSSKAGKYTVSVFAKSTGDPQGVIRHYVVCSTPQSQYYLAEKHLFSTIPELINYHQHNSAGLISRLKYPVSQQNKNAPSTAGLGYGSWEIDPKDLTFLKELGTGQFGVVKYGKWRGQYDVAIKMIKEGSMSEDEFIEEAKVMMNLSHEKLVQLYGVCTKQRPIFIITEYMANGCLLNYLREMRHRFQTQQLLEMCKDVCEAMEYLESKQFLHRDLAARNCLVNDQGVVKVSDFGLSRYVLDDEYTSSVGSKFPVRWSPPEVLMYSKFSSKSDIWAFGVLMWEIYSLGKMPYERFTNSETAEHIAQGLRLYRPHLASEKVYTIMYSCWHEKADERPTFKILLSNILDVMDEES
UniProt Q9Y5S2: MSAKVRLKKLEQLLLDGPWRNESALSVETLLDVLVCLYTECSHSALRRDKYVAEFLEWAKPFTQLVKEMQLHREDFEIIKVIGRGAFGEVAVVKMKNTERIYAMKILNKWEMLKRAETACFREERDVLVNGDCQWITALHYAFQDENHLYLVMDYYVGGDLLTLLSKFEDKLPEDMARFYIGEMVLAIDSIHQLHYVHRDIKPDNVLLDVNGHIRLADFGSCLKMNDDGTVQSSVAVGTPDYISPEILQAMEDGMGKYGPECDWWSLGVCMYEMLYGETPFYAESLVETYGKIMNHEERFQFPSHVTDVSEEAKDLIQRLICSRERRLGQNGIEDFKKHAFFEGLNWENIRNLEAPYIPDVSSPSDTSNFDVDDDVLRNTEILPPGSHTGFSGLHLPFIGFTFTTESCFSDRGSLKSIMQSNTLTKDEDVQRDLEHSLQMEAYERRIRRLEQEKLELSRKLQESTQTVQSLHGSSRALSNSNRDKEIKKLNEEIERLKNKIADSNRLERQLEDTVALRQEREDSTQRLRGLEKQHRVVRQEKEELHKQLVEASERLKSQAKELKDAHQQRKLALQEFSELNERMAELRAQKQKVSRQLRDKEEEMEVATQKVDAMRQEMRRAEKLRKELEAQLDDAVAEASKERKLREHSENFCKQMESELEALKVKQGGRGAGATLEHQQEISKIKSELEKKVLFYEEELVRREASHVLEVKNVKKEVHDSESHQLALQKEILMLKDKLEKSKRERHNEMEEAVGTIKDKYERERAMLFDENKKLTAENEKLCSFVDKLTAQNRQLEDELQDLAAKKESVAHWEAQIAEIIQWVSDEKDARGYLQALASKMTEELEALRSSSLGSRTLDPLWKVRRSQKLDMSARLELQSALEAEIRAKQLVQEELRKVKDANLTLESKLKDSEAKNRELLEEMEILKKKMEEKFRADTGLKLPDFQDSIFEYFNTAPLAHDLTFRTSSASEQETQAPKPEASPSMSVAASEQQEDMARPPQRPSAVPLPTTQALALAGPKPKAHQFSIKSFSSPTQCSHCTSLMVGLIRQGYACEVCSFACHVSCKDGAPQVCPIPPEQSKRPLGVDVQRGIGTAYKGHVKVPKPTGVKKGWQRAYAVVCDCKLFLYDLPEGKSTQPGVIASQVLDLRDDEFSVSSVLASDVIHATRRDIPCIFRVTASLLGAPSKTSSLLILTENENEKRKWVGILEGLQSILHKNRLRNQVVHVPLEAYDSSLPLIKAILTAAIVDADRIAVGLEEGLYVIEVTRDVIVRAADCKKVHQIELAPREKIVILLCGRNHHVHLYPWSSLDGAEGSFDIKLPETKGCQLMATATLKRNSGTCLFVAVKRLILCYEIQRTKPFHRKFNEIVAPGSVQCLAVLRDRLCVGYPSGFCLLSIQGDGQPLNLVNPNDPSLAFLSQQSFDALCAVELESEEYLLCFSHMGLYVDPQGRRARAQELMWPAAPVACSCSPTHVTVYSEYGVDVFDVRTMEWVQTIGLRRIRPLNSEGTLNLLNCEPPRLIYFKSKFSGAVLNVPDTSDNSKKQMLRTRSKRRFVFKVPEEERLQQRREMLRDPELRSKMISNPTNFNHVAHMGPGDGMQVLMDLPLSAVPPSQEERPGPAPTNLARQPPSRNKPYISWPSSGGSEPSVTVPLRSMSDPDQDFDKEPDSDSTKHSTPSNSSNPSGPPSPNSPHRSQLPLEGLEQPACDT
UniProt P78368: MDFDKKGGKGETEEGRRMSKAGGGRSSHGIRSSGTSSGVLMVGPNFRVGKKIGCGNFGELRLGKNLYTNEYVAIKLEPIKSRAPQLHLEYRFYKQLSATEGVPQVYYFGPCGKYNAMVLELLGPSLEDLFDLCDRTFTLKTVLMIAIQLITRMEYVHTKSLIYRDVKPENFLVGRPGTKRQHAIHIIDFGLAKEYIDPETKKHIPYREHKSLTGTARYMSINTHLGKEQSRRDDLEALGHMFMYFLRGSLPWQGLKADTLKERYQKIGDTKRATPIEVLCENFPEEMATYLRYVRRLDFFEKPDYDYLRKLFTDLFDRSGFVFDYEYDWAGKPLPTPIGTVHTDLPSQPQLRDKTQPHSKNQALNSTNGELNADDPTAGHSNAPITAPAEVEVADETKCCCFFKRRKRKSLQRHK

Some targets named below: BTK(R28H)(h) (Homo sapiens, UniProt Q06187, R28H); MRCKβ(h) (Homo sapiens, UniProt Q9Y5S2); CK1γ2(h) (Homo sapiens, UniProt P78368).
What all share (test): Kinase Profiling Assay
Common to all, as to assay type: biochemical
Holding throughout (conditions): 100 μM

A further assay concerns the target T1, IKKα(h) (Homo sapiens, UniProt O15111).
T1 sequence (O15111 1-745): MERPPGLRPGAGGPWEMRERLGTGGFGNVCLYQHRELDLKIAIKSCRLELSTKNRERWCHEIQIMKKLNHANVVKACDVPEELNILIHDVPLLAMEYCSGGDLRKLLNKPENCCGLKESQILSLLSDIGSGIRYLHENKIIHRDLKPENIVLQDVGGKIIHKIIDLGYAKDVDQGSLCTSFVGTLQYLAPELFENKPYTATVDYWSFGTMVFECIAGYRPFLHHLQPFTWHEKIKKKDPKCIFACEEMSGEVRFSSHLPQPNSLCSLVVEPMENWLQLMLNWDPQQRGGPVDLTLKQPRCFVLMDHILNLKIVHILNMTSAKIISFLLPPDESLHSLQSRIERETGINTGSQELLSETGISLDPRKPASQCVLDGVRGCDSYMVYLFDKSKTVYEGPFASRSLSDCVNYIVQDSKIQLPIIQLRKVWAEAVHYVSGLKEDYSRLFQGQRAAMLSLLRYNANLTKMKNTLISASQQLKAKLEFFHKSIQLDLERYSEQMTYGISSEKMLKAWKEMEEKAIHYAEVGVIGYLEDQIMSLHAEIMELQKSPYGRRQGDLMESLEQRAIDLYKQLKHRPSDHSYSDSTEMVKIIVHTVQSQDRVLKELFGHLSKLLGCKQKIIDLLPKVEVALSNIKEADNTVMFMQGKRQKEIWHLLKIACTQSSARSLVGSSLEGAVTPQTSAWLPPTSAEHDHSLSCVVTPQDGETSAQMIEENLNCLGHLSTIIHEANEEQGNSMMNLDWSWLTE

“YARAAARQARAKALNRQLGVA (Mammalian) [MMI-0200]”: the “% activity” value with BTK(R28H)(h) was found to be 104%; in the assay with IKKα(h), 104%; with MRCKβ(h), 102%; with CK1γ2(h), 104%.
